These are literature values, as cited in patent US7226990B2, “Extendin derivatives” (Novo Nordisk A/S, priority 1998, dated 2007).

The conditions of this series: in humans; reference (19).

With glucagon-like peptide-1 [GLP-1], the plasma half-life is 2 min.
